# Assay: Selectivity index, ratio of CC50 for human Hep2 cells to EC50 for Respiratory syncytial virus Long infected in human Hep2 cells
row,SMILES,selectivity ratio
1,Cc1ccc(C(F)(F)F)cc1NC(=O)[C@@H]1CCCN1S(=O)(=O)c1cccc2cccnc12,0.1
2,O=C(Nc1ccccc1)[C@@H]1CCCN1S(=O)(=O)c1cccc2cccnc12,0.7
3,NC(=O)c1ncn([C@@H]2O[C@H](CO)[C@@H](O)[C@H]2O)n1 [RIBAVIRIN],3.6
4,COc1ccc(C)c(NC(=O)[C@@H]2CCCN2S(=O)(=O)c2cccc3cccnc23)c1,10.4
5,Cc1ccccc1NC(=O)[C@@H]1CCCN1S(=O)(=O)c1cccc2cccnc12,2.1
6,Cc1ccc(C)c(NC(=O)[C@@H]2CCCN2S(=O)(=O)c2cccc3cccnc23)c1,13.4
7,Cc1ccc(C(C)C)cc1NC(=O)[C@@H]1CCCN1S(=O)(=O)c1cccc2cccnc12,0.2
8,Cc1cccc(NC(=O)[C@@H]2CCCN2S(=O)(=O)c2cccc3cccnc23)c1,0.5
9,Cc1cc(C)cc(NC(=O)[C@@H]2CCCN2S(=O)(=O)c2cccc3cccnc23)c1,0.6
